Test results as given in the supplement of paper PMC13207355.

Columns and labels:
Conditions in all cases: exposure time: 72 h
E13 [1] = patient-derived glioblastoma stem cells of classical subtype; test: surviving fraction (nuclei count normalised to DMSO); higher = more cells surviving (less toxic)
E21 [2] = patient-derived glioblastoma stem cells of mesenchymal subtype; test: as above
E28 [3] = patient-derived glioblastoma stem cells of classical subtype; test: as above
E31 [4] = patient-derived glioblastoma stem cells of proneural subtype; test: as above
E34 [5] = patient-derived glioblastoma stem cells of proneural subtype; test: as above
E57 [6] = patient-derived glioblastoma stem cells of mesenchymal subtype; test: as above
FT3469 [7] = normal neural stem cell line; test: as above
E13 [8] = test: phenotypic distance (Euclidean, principal components) from DMSO controls (arbitrary units); higher = stronger morphological change
Method: (§1)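 Validation of 211 repurchased screening hits by 7-8 point semi-log dose response (about 3-3000 nM) on six patient-derived glioblastoma stem cell lines (GCGR E13, E21, E28, E31, E34, E57) and a normal neural stem cell line (FT3469), grown on laminin in 384-well plates and exposed for 72 h (0.1% DMSO). Cell Painting read-out: the DMSO-normalised nuclei count gives the surviving fraction, and the phenotypic distance is the Euclidean distance in 20 principal components of CellProfiler features relative to the plate DMSO controls (StratoMineR). One well per dose (n=1), 6 fields of view.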

E21 [9] = test: as above
Method: as §1

E28 [10] = test: as above
Method: as §1

E31 [11] = test: as above
Method: as §1

E34 [12] = test: as above
Method: as §1

E57 [13] = test: as above
Method: as §1

FT3469 [14] = test: as above
Method: as §1
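Throughout, for phenotypic distance (Euclidean, principal components) from DMSO controls: cell Painting imaging in 384-well plates, CellProfiler features reduced to at least 20 principal components, Euclidean distance versus same-plate DMSO vehicle wells (0.1% v/v), median over six images per well.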
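Throughout, for surviving fraction (nuclei count normalised to DMSO): nuclei counted by high-content imaging of Hoechst-stained cells in laminin-coated 384-well plates, relative to 0.1% DMSO vehicle wells, with staurosporine as cell-death control.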

COc1cc(Br)c(C[N+]2(CCOCCC3CCC4CC3C4(C)C)CCOCC2)cc1OC (stereo not drawn) [Pinaverium bromide]
Conditions	phenotypic distance	surviving fraction
E13 [1], 4.1 nM	–	0.944
E13 [1], 12.3 nM	–	0.965
E13 [1], 37 nM	–	1.06
E13 [1], 111.1 nM	–	1.08
E13 [1], 333.3 nM	–	0.931
E13 [1], 1000 nM	–	0.92
E13 [1], 3000 nM	–	0.775
E13 [8], 4.1 nM	0.64	–
E13 [8], 12.3 nM	0.313	–
E13 [8], 37 nM	0.695	–
E13 [8], 111.1 nM	0.681	–
E13 [8], 333.3 nM	0.69	–
E13 [8], 1000 nM	1.03	–
E13 [8], 3000 nM	0.903	–
E21 [2], 4.1 nM	–	1.1
E21 [2], 12.3 nM	–	1
E21 [2], 37 nM	–	0.981
E21 [2], 111.1 nM	–	0.837
E21 [2], 333.3 nM	–	0.931
E21 [2], 1000 nM	–	0.89
E21 [2], 3000 nM	–	0.786
E21 [9], 4.1 nM	0.789	–
E21 [9], 12.3 nM	0.834	–
E21 [9], 37 nM	0.736	–
E21 [9], 111.1 nM	3.34	–
E21 [9], 333.3 nM	2.01	–
E21 [9], 1000 nM	1.99	–
E21 [9], 3000 nM	3.26	–
E28 [3], 4.1 nM	–	1.11
E28 [3], 12.3 nM	–	1.09
E28 [3], 37 nM	–	1.07
E28 [3], 111.1 nM	–	0.952
E28 [3], 333.3 nM	–	0.992
E28 [3], 1000 nM	–	0.874
E28 [3], 3000 nM	–	0.596
E28 [10], 4.1 nM	0.713	–
E28 [10], 12.3 nM	0.923	–
E28 [10], 37 nM	0.491	–
E28 [10], 111.1 nM	0.713	–
E28 [10], 333.3 nM	0.57	–
E28 [10], 1000 nM	1.15	–
E28 [10], 3000 nM	2.53	–
E31 [4], 4.1 nM	–	0.859
E31 [4], 12.3 nM	–	0.871
E31 [4], 37 nM	–	0.915
E31 [4], 111.1 nM	–	0.976
E31 [4], 333.3 nM	–	1.05
E31 [4], 1000 nM	–	0.93
E31 [4], 3000 nM	–	0.615
E31 [11], 4.1 nM	0.516	–
E31 [11], 12.3 nM	0.903	–
E31 [11], 37 nM	0.304	–
E31 [11], 111.1 nM	0.939	–
E31 [11], 333.3 nM	1.76	–
E31 [11], 1000 nM	2.44	–
E31 [11], 3000 nM	1.9	–
E34 [5], 4.1 nM	–	1.11
E34 [5], 12.3 nM	–	1.1
E34 [5], 37 nM	–	0.886
E34 [5], 111.1 nM	–	0.988
E34 [5], 333.3 nM	–	0.931
E34 [5], 1000 nM	–	1.01
E34 [5], 3000 nM	–	1.12
E34 [12], 4.1 nM	0.656	–
E34 [12], 12.3 nM	0.768	–
E34 [12], 37 nM	0.758	–
E34 [12], 111.1 nM	0.83	–
E34 [12], 333.3 nM	0.93	–
E34 [12], 1000 nM	1.11	–
E34 [12], 3000 nM	1.49	–
E57 [6], 4.1 nM	–	1.01
E57 [6], 12.3 nM	–	1.01
E57 [6], 37 nM	–	1.02
E57 [6], 111.1 nM	–	1.05
E57 [6], 333.3 nM	–	1.07
E57 [6], 1000 nM	–	1.06
E57 [6], 3000 nM	–	1.04
E57 [13], 4.1 nM	0.441	–
E57 [13], 12.3 nM	0.742	–
E57 [13], 37 nM	0.328	–
E57 [13], 111.1 nM	0.556	–
E57 [13], 333.3 nM	0.795	–
E57 [13], 1000 nM	1.34	–
E57 [13], 3000 nM	2.4	–
FT3469 [7], 4.1 nM	–	1.13
FT3469 [7], 12.3 nM	–	1.14
FT3469 [7], 37 nM	–	1.03
FT3469 [7], 111.1 nM	–	1.11
FT3469 [7], 333.3 nM	–	1.04
FT3469 [7], 1000 nM	–	1.01
FT3469 [7], 3000 nM	–	0.864
FT3469 [14], 4.1 nM	0.728	–
FT3469 [14], 12.3 nM	1.05	–
FT3469 [14], 37 nM	0.502	–
FT3469 [14], 111.1 nM	0.754	–
FT3469 [14], 333.3 nM	0.722	–
FT3469 [14], 1000 nM	1.16	–
FT3469 [14], 3000 nM	1.56	–
